# Values of other authors in patent US5811456A, “Monoamine oxidase B inhibitors, processes for their preparation and use thereof” (priority 1994, dated 1998).
# Where two headings read alike, the source gives them in different places.
# Tested on: MAO B
# Conditions: background, cited from earlier work
smiles,measurement,setting,value
C#CCN(C)C(C)Cc1ccccc1 (centres unmarked) [Deprenyl],inhibition of MAO B (in words),,irreversible inhibitor of MAO B
same,inhibition of MAO B (in words),listed as deprenyl,acts on MAO B
